Among the data in ChEMBL document CHEMBL4420070, “6-6 Fused Bicyclic Heteroaryl Compounds and their Use as LATS Inhibitors” (2018) are Activity and inhibition values, retold here.

Amino acid sequences for entries named in this document (tags omitted). A change or cut given only in a name is not applied to a line headed by its entry.
UniProt Q9NRM7: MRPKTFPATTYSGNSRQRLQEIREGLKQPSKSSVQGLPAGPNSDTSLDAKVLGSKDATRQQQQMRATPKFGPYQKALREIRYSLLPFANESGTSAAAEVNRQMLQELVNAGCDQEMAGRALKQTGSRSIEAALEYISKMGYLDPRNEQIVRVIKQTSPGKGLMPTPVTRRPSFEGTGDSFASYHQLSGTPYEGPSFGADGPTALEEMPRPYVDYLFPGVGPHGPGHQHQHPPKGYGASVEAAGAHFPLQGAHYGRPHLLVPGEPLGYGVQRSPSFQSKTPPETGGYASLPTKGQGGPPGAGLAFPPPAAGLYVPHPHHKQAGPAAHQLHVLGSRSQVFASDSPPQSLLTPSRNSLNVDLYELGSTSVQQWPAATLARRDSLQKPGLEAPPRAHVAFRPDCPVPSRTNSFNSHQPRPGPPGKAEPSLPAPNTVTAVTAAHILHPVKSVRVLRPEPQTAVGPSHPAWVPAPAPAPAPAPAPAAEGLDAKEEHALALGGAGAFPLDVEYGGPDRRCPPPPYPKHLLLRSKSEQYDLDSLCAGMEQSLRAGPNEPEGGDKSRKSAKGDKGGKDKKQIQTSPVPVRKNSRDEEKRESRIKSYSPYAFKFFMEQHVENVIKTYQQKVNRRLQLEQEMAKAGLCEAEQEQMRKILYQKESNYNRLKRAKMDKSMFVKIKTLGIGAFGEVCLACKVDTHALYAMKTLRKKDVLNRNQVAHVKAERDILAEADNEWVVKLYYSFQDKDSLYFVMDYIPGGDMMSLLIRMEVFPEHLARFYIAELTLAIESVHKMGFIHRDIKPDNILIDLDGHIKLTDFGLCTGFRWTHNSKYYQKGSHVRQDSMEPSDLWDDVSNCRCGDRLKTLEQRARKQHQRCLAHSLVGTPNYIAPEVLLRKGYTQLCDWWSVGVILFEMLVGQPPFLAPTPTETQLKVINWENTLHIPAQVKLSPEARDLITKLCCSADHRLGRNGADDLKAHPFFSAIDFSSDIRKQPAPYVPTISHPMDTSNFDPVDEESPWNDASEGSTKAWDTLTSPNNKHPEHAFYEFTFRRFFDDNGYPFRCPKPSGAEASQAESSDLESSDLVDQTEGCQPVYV
UniProt O95835: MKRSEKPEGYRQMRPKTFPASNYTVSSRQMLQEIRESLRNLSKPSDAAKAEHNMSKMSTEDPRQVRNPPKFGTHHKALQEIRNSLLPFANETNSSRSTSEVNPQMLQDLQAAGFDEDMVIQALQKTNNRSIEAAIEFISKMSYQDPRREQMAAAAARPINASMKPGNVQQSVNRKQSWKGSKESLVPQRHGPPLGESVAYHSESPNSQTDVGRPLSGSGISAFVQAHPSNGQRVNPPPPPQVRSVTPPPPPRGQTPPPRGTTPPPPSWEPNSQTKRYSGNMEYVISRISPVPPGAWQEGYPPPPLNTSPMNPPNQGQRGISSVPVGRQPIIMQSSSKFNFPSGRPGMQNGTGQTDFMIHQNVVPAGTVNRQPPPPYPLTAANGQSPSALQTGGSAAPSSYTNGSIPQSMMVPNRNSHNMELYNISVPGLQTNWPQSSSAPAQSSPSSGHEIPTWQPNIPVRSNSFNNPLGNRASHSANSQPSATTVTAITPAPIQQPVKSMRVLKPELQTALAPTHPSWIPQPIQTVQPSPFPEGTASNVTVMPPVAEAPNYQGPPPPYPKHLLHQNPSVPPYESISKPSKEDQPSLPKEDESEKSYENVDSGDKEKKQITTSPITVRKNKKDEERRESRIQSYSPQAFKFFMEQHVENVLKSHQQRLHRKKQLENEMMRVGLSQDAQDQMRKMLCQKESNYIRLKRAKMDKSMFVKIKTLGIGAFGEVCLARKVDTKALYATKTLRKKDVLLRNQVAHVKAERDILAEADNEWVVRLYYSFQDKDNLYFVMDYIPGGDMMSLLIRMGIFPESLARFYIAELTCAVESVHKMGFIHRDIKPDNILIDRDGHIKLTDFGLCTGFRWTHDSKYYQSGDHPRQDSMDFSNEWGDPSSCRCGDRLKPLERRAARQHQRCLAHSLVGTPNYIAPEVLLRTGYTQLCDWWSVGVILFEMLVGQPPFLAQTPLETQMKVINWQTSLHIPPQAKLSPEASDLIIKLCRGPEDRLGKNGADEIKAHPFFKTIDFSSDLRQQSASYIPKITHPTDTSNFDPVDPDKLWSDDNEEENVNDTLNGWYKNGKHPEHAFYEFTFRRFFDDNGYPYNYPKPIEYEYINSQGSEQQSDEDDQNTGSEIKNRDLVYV

The target of assay [1] is T1, Serine/threonine-protein kinase LATS (Homo sapiens) (UniProt Q9NRM7+O95835). As to the kind of experiment: Inhibition of LATS in human limbal epithelial cells assessed as induction of limbal stem cell expansion by measuring expansion factor ratio at 10 uM measured after 2 weeks by p63alpha expression detection based immunohistochemistry relative to control. More on the design: scale not given: the % may be the effect or the level left.

Assay [2] deals with T1, Serine/threonine-protein kinase LATS (Homo sapiens). As to the kind of experiment: Inhibition of LATS in human corneal endothelium cells assessed as induction of cell expansion by measuring cell density at 10 uM by Sytox orange dye based epifluorescence microscopy.
Assay [3] has the same target. As to the kind of experiment: Inhibition of LATS in human limbal epithelial cells assessed as induction of cell differentiation into corneal epithelial cells by measuring keratin-12 expression at 10 uM incubated for 8 to 10 days followed by medium change to DMEM medium without serum and compound for further incubation for 4 to 8 days by confocal microscopy. The format is cell-based.

The source made the active and inactive calls. No cut-off for these calls is given here.

In the case of `CC(C)(COCCO)Nc1nc(-c2ccncc2)nc2cnccc12`, the values for the Activity in assay [1] and in assay [2] were 57 to 97% and 1120 /mm2, respectively.
Turning to `CC(C)(O)COCC(C)(C)Nc1nc(-c2ccncc2)nc2cnccc12`, the inhibition result in assay [3] is “Active”. Also, the Activity was 57 to 97% in assay [1] and 4230 /mm2 in assay [2].
